Assay type in all cases: functional, organism-based
Assay [1] concerns the target T1, Toll-like receptor 7 (Mus musculus) (UniProt P58681).
T1 sequence (whole entry): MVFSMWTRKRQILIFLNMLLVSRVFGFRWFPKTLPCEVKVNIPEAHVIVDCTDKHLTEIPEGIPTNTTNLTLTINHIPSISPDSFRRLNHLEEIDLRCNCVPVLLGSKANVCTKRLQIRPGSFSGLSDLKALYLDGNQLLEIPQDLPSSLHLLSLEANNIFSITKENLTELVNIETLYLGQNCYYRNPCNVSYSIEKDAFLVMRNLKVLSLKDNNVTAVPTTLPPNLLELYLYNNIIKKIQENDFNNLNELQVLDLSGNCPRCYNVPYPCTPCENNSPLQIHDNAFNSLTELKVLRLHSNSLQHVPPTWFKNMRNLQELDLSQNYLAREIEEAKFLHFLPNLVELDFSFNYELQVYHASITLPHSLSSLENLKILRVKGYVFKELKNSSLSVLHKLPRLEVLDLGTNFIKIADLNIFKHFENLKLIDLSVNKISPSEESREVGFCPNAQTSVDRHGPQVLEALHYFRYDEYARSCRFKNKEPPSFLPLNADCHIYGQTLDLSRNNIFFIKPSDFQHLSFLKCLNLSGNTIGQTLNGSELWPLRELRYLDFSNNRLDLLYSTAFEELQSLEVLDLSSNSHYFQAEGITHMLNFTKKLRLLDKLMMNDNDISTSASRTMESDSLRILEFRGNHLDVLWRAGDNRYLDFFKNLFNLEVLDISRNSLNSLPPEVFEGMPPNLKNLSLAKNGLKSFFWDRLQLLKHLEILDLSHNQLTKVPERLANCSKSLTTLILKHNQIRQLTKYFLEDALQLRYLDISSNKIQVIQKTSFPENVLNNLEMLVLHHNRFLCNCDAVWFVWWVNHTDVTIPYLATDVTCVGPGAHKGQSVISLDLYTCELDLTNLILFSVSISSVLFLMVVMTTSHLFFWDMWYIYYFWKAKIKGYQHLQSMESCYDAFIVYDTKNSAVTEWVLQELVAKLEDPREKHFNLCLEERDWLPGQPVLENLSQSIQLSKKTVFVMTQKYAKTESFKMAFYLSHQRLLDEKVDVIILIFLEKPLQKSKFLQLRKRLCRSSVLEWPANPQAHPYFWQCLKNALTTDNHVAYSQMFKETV
Put plainly: In vivo antagonist activity at TLR7 in C57BL/6 mouse assessed as reduction of gardiquimod-induced IL-6 production at 3 mg/kg, po pretreated for 30 mins followed by gardiquimod-stimulation and measured after 120 mins by ELISA. Also on record: scale not given: the % may be the effect or the level left. Background: In an ELISA, binding on a coated surface is turned into a signal by an enzyme label.

Assay [2] has as its target T1, Toll-like receptor 7 (Mus musculus). Put plainly: In vivo antagonist activity at TLR7 in C57BL/6 mouse assessed as reduction of gardiquimod-induced IL-6 production at 30 mg/kg, po pretreated for 30 mins followed by gardiquimod-stimulation and measured after 120 mins by ELISA. On the set-up: scale not given: the % may be the effect or the level left.
For assay [3] the target is unchanged. Put plainly: In vivo antagonist activity at TLR7 in C57BL/6 mouse assessed as reduction of gardiquimod-induced IL-6 production at 0.1 mg/kg, po pretreated for 30 mins followed by gardiquimod-stimulation and measured after 120 mins by ELISA. Also on record: scale not given: the % may be the effect or the level left.
The target is the same in assay [4]. Put plainly: In vivo antagonist activity at TLR7 in po dosed C57BL/6 mouse assessed as reduction of gardiquimod-induced IL-6 production pretreated for 30 mins followed by gardiquimod-stimulation and measured after 120 mins by ELISA.
Assay [5] addresses T2, Toll-like receptor 9 (Mus musculus) (UniProt Q9EQU3).
T2 sequence (whole entry): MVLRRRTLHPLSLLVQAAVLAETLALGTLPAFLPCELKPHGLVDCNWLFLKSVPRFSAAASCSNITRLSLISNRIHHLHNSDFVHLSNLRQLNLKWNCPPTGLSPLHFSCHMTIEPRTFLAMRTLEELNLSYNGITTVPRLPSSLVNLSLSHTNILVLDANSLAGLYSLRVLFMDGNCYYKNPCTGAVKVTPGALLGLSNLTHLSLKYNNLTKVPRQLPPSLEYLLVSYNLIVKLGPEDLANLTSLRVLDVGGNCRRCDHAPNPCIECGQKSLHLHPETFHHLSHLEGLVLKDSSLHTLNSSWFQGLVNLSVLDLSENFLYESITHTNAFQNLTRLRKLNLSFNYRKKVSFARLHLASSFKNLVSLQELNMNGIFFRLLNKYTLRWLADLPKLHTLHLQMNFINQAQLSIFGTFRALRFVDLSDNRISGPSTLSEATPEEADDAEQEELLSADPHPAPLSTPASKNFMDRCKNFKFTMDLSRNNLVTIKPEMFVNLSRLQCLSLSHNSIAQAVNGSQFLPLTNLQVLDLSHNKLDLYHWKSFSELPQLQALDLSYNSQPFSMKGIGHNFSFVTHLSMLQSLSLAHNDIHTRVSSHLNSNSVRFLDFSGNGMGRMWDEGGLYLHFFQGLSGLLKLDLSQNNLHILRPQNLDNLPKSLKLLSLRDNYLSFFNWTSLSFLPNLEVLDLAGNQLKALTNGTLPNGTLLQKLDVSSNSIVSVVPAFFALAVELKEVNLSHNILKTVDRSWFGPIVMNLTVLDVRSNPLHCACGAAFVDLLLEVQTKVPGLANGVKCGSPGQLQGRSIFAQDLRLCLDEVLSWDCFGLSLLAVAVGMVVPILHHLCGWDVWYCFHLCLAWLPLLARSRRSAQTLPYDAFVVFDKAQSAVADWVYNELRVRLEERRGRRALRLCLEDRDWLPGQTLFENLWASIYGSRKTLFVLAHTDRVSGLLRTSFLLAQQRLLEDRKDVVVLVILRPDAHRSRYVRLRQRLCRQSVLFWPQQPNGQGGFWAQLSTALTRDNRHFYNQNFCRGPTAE
Put plainly: In vivo antagonist activity at TLR9 in C57BL/6 mouse assessed as reduction of CpG-ODN-1585-induced IL-6 production at 30 mg/kg, po pretreated for 30 mins followed by CpG-ODN-1585-stimulation and measured after 120 mins by ELISA. Also on record: scale not given: the % may be the effect or the level left.

The target of assay [6] is T1, Toll-like receptor 7 (Mus musculus). Put plainly: In vivo antagonist activity at TLR7 in C57BL/6 mouse assessed as reduction of gardiquimod-induced IL-6 production at 1 mg/kg, po pretreated for 30 mins followed by gardiquimod-stimulation and measured after 120 mins by ELISA. On the set-up: scale not given: the % may be the effect or the level left.
Assay [7] addresses T2, Toll-like receptor 9 (Mus musculus). Put plainly: In vivo antagonist activity at TLR9 in C57BL/6 mouse assessed as reduction of CpG-ODN-1585-induced IL-6 production at 1 mg/kg, po pretreated for 30 mins followed by CpG-ODN-1585-stimulation and measured after 120 mins by ELISA. On the set-up: scale not given: the % may be the effect or the level left.
The target is the same in assay [8]. Put plainly: In vivo antagonist activity at TLR9 in po dosed C57BL/6 mouse assessed as reduction of CpG-ODN-1585-induced IL-6 production pretreated for 30 mins followed by CpG-ODN-1585-stimulation and measured after 120 mins by ELISA.
Assay [9] shares this target. Put plainly: In vivo antagonist activity at TLR9 in C57BL/6 mouse assessed as reduction of CpG-ODN-1585-induced IL-6 production at 0.3 mg/kg, po pretreated for 30 mins followed by CpG-ODN-1585-stimulation and measured after 120 mins by ELISA. Also on record: scale not given: the % may be the effect or the level left.
Assay [10] has the same target. Put plainly: In vivo antagonist activity at TLR9 in C57BL/6 mouse assessed as reduction of CpG-ODN-1585-induced IL-6 production at 0.1 mg/kg, po pretreated for 30 mins followed by CpG-ODN-1585-stimulation and measured after 120 mins by ELISA. Also on record: scale not given: the % may be the effect or the level left.
The target of assay [11] is T1, Toll-like receptor 7 (Mus musculus). Put plainly: In vivo antagonist activity at TLR7 in C57BL/6 mouse assessed as reduction of gardiquimod-induced IL-6 production at 10 mg/kg, po pretreated for 30 mins followed by gardiquimod-stimulation and measured after 120 mins by ELISA. Also on record: scale not given: the % may be the effect or the level left.
Assay [12] deals with T2, Toll-like receptor 9 (Mus musculus). Put plainly: In vivo antagonist activity at TLR9 in C57BL/6 mouse assessed as reduction of CpG-ODN-1585-induced IL-6 production at 3 mg/kg, po pretreated for 30 mins followed by CpG-ODN-1585-stimulation and measured after 120 mins by ELISA. Also on record: scale not given: the % may be the effect or the level left.

As for `CNCCN1CCC(c2ccc3[nH]c(-c4ccc(OC)c(OC)c4)c(C(C)C)c3c2)CC1`, the Activity is 88% in assay [1]; 99% in assay [2]; 34% in assay [3]; “Dose-dependent effect” in [4]; 87% in assay [5]; 68% in assay [6]. Moreover, the Activity in [7] is 45%; in assay [8], “Dose-dependent effect”; in [9] it was 16%; in assay [10] it was 8%; in [11] it was 97%; in assay [12] it was 74%.

The values are drawn from ChEMBL document CHEMBL4619828, “Discovery of Potent and Orally Bioavailable Small Molecule Antagonists of Toll-like Receptors 7/8/9 (TLR7/8/9)” (ACS Med Chem Lett, 2020).
